# According to US4224332A, “1-Aza-[2,2,2]-bicyclooctanes and anti-depressant and anti-parkinsonian compositions thereof” (Pharmindustrie, priority 1978, dated 1980):
# Columns and labels:
# Format in all cases: biochemical
# Conditions in all cases: in vitro
# [1] = tested on: uptake of the noradrenaline (NA); experiment: inhibition of the uptake of noradrenaline (NA) by synaptosomes of the rat's brain, hypothalamus
# Text: (§1) The activity of the products according to the present invention as antidepressants has now been shown, in vitro, by means of the test for inhibition of the uptake of the cerebral amines by the synaptosomes of the rat's brain, according to the method of […] et al., (Biochem. Pharmacol. 22, 73, 1973) which is relied upon herein for this purpose and the disclosure incorporated by reference.
# (§2) The results are expressed by an inhibiting concentration IC50, which represents the dose of product in micromoles per liter reducing by 50% the uptake of the noradrenaline (NA), the dopamine (DA), the serotonine (5-HT), or the choline in the specific regions of the brain (hypothalamus,striatum, medulla+pons) where the corresponding neurons predominate.
# [2] = tested on: uptake of the dopamine (DA); experiment: inhibition of the uptake of dopamine (DA) by synaptosomes of the rat's brain, striatum
# [3] = tested on: uptake of the serotonine (5-HT); experiment: inhibition of the uptake of serotonine (5-HT) by synaptosomes of the rat's brain, medulla + pons
# Text: as §1, §2
# [4] = tested on: uptake of the choline; experiment: inhibition of the uptake of choline by synaptosomes of the rat's brain, striatum
compound,measurement,setting,value
"CC(N)Cc1ccccc1 (stereo not shown) [Amphetamine, reference compound]",IC50,[1],0.012 µM
same,IC50,[2],1.7 µM
same,IC50,[3],5 µM
same,IC50,[4],1000 µM
